Only some compounds are listed: those with a hit (about 16% of all), similar ones and a draw of the others.
DT40 TDP1 no CPT: qHTS for Inhibitors of human tyrosyl-DNA phosphodiesterase 1 (TDP1): qHTS in cells in absence of CPT; Potency, µM (doses to about 46.2 µM), for the others: at the top dose activity change, negative = growth inhibition, actives largely listed as inhibitors; AID 686978, 2013; DT40 Tdp1-/- hTDP1 cells, no CPT, ATP luminescence, 48 h; 420,000 tested, 15% active; further: potency means the concentration at half of the fitted maximal effect; on the % scale 0 is the no-effect control and ±100 the full control effect; nearly all actives have a fitted effect of over 55% in size
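Growth kinetics read by CellTiter-Glo luminescence after ≥48 hr at 37 °C. Cells: DT40 Tdp1-/- stably carrying human TDP1, 400 per well, compound exposure in the absence of CPT (DMSO vehicle).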
uPA generation: inhibitors of cell surface uPA generation | 330,000 tested, 0.31% active | Potency, µM (titrated, usually from 38.3 µM), without a hit: top-dose activity change, negative = inhibition, most hits filed as inhibitors | cell surface uPA generation assay, qHTS; active means well fitted inhibition curve with a large enough effect; inconclusive means small, poorly fitted or top-dose-only effect; inactive means no such curve, though single readings can be large or run the other way; tested in mouse RAW 264.7 cells; further: potency means the concentration at half of the fitted maximal effect; on the % scale 0 is the no-effect control and ±100 the full control effect; nearly all actives have a fitted effect of over 55% in size
TDP1 cell CPT: growth inhibition of DT40 Tdp1-/-;hTDP1 cells with camptothecin (screen for TDP1 inhibitors) | chicken DT40 Tdp1-/-;hTDP1 cells + 20 nM CPT, ATP luminescence, 48 h | Potency, µM (top dose mostly 46.2 µM), for the others: at the top dose activity change, negative = growth inhibition, usual class: inhibitors | 420,000 tested, 12% active | AID 686979; further: potency means the concentration at half of the fitted maximal effect; on the % scale 0 is the no-effect control and ±100 the full control effect; nearly all actives have a fitted effect of over 55% in size
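Chicken DT40 Tdp1-/- cells complemented with human TDP1, 400 cells/well, exposed to compounds plus 20 nM camptothecin for at least 48 h at 37 C; viability read as ATP content by CellTiter-Glo luminescence.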
TDP1 inh: inhibitors of human tyrosyl-DNA phosphodiesterase TDP1 | Potency, µM (highest dose often 130 µM), for inactives: top-dose activity change, negative = inhibition, usual class: inhibitors | 350,000 tested, 0.28% active | recombinant TDP1, AlphaScreen DNA substrate cleavage | Q9NUW8; further: potency means the concentration at half of the fitted maximal effect; on the % scale 0 is the no-effect control and ±100 the full control effect; nearly all actives have a fitted effect of over 40% in size
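AlphaScreen read-out: signal falls as enzyme removes the 3' tyrosine-FITC from a 5'-biotinylated DNA oligo (15 nM, 5 min, RT). Enzyme was E. coli-made recombinant Tdp1 at 1 nM, exposed to compound for 15 min beforehand; beads 10 ug/ml, 10 min.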
miR-21 reporter: raises the signal of a miR-21 reporter | HeLa miR-21 FLuc reporter, luciferase, 48 h | Potency, µM (highest dose often 38.3 µM), inactives show at the highest dose reporter change, positive = more light | 340,000 tested, under 10 active | AID 2288; active = well fitted rising curve with a large enough effect; inconclusive = small, poorly fitted or top-dose-only effect; inactive = no such curve, though single readings can be large or run the other way;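 note: % of control where 0% means no effect; miR-21 action dims this reporter so a rising signal means less miR-21 action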
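Using DMEM plus 10% FBS, HeLa miR-21-FLuc cells are incubated with test compounds (final up to about 40uM) for 48 hours; firefly luciferase signal is then imaged following reagent-mediated lysis.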
* marks the source's active call; other numbers are inactive results; ? = inconclusive; / = no result given; [ ] = dose if it differs, or a comment. Unless noted, the call rests on the fitted dose curve; in most records, active means well fitted curve in the direction sought with a large enough effect; inconclusive means small, poorly fitted or top-dose-only effect, or another doubt; inactive means no such curve, though single readings can be large; an effect the other way counts as inactive or inconclusive.

molecule,DT40 TDP1 no CPT,uPA generation,TDP1 cell CPT,TDP1 inh,miR-21 reporter
O=C(NCc1ccon1)c1ccc(-c2csc3ccccc23)nc1N1CCC(N2CCCC(CO)C2)CC1 (stereo unspecified),-10%,/,13%[9.04 µM],/,/
CC1(C(=O)Nc2ccc(F)cc2F)CCN1C(=O)CCC1CCCC1 (stereo unspecified),23µM*,/,?,/,/
CC1(C(=O)Nc2ccc(F)cc2F)CCN1C(=O)Cc1ccccc1Cl (stereo unspecified),-20%,/,-6%,/,/
CC(C)(C)c1ccc(CC(=O)N2CCC2(C)C(=O)Nc2ccc(F)cc2F)cc1 (stereo unspecified),16µM*,/,23µM*,/,/
COc1ccc(OCCSc2nc(C)nc3ccccc23)cc1,?,1%,?,1%,1%
CN(C)c1nc(N/N=C\c2ccc(Cl)c([N+](=O)[O-])c2)nc(Nc2ccc(F)cc2)n1,5.2µM*,-19%,5.2µM*,/,/
COc1ccc(N2CCN(C(CNC(=O)c3c(F)cccc3F)c3ccc4c(c3)OCO4)CC2)cc1 (stereo unspecified),16µM*,/,?,8%,-5%
O=C(NCC(c1ccc2c(c1)OCO2)N1CCN(c2ccccc2)CC1)c1ccc(F)c(F)c1 (stereo unspecified),2.3µM*,/,5.2µM*,10%,20%
CC(C)C(=O)NCC(c1ccc2c(c1)OCO2)N1CCN(c2ccccc2F)CC1 (stereo unspecified),-7%,/,-3%,-1%,2%
O=C(NCC(c1ccc2c(c1)OCO2)N1CCOCC1)c1ccccc1 (stereo unspecified),?,/,-23%,3%,-21%
O=C(NCC(c1ccc2c(c1)OCO2)N1CCN(c2ccccc2F)CC1)c1ccccc1F (stereo unspecified),15µM*,/,12µM*,9%,7%
COC(=O)NCC(c1ccc2c(c1)OCO2)N1CCN(c2ccc(OC)cc2)CC1 (stereo unspecified),?,-21%,?,7%,1%
COc1ccc(C(=O)NCC(c2ccc3c(c2)OCO3)N2CCOCC2)cc1 (stereo unspecified),?,/,?,5%,2%
COc1ccc(C(=O)NCC(c2ccc3c(c2)OCO3)N2CCN(c3ccccc3F)CC2)cc1 (stereo unspecified),5.2µM*,/,7.3µM*,7%,19%
CCOc1ccc(C(=O)NCC(c2ccc3c(c2)OCO3)N2CCN(C)CC2)cc1 (stereo unspecified),1%,/,0%,4%,-4%
CCOc1ccc(C(=O)NCC(c2ccc3c(c2)OCO3)N2CCN(c3ccccc3F)CC2)cc1 (stereo unspecified),21µM*,/,16µM*,8%,23%
O=C(NCC(c1ccco1)N1CCN(c2ccc(F)cc2)CC1)c1ccc2c(c1)OCO2 (stereo unspecified),?,0%,?,/,/
O=C(NCC(c1ccco1)N1CCN(c2ccccc2F)CC1)c1ccc2c(c1)OCO2 (stereo unspecified),18µM*,?,?,/,/
Cc1cccc(C(=O)NCC(c2ccc3c(c2)OCO3)N2CCOCC2)c1 (stereo unspecified),23µM*,/,?,-2%,-5%
Cc1c(C#N)c2ccccc2n1CC(=O)NCc1cccnc1,-21%,3%,-29%,-3%,-3%
CCN(Cc1cnn(C)c1)Cc1nc(C2(c3ccc(C)cc3)CCCC2)no1,?,0%,?,3%,-4%
COc1cccc(C(=O)Nc2ccc(C3CC3(Cl)Cl)cc2)c1 (stereo unspecified),?,?,?,-2%,-26%
OC(COc1ccc(CNCCc2ccccc2F)cc1)CN1CCCCC1 (stereo unspecified),?,12%,?,/,0%
Nc1ncnc(Nc2cc(Cl)cc(Cl)c2)c1[N+](=O)[O-],-7%,4%,-15%,3%,0%
Cc1cc(C(=O)N/N=C/c2cccc(OC(=O)c3cccc(Br)c3)c2)n[nH]1,-2%,-11%,-7%,3%,-17%
COc1cccc(C(=O)Oc2c(Br)cc(Br)cc2/C=N/NC(=O)c2cc(C)[nH]n2)c1,9.2µM*,4µM*,6.5µM*,-4%,20%
COc1cc(C(=O)Oc2cccc(C=O)c2)cc(OC)c1OC,?,2%,26µM*,-2%,-1%
COc1cc(C(=O)Oc2cccc(/C=N/NC(=O)c3cc(C)[nH]n3)c2)cc(OC)c1OC,21µM*,-2%,?,-8%,-14%
CNS(=O)(=O)c1ccc(NC(=S)Nc2ccc3c(c2)OCO3)cc1,7%,3%,6%,5%,-36%
CCc1ccc(S(=O)(=O)NCc2nc3cccnc3n2Cc2ccccc2Cl)cc1,15µM*,/,?,7%,1%
O=[N+]([O-])c1ccc(S(=O)(=O)NCc2nc3cccnc3n2Cc2ccccc2Cl)cc1,15µM*,/,15µM*,13%,10%
COc1ccccc1Cn1c(CNS(=O)(=O)c2cccc([N+](=O)[O-])c2)nc2cccnc21,16µM*,/,21µM*,11%,1%
CC(C)(C)c1ccc(S(=O)(=O)NCc2nc3cccnc3n2Cc2ccccc2Cl)cc1,?,/,?,4%,14%
CCc1ccc(Cn2c(CNS(=O)(=O)c3ccc4c(c3)CCCC4)nc3cccnc32)cc1,16µM*,/,?,9%,-6%
CC(=O)c1cc(CN2CCC(N3CCC(C(=O)N4CCCC4)CC3)CC2)cs1,-22%,-5%,8%,6%,-9%
O=C(/C=C/c1ccccc1)NCCSCc1ccccc1Cl,?,-7%,?,3%,-15%
COc1ccc(Cn2c(CNS(=O)(=O)c3ccc(Cl)s3)nc3cccnc32)cc1,16µM*,/,?,12%,-3%
COC(=O)C1=C(O)C(C(=O)OC)C(c2ccc(C)cc2)C(C#N)(C#N)C1c1ccc(C)cc1 (stereo unspecified),4.1µM*,2%,5.2µM*,1%,2%
Cc1ccc([N+](=O)[O-])cc1S(=O)(=O)N1CCn2cccc2C1c1ccccc1 (stereo unspecified),?,/,21µM*,13%,-2%
Cc1ccc([N+](=O)[O-])cc1S(=O)(=O)N1CCN(C)CC1,3%,-2%,14%,4%,0%
Cc1ccccc1NS(=O)(=O)c1ccc(C(=O)N2CCC2)cc1,?,3%,-23%,0%,/
COc1cccc(CN(C)C(=O)c2ccc(S(=O)(=O)Nc3ccccc3F)cc2)c1OC,?,-1%,?,0%,/

Part of the list above, reformatted.
COc1ccccc1Cn1c(CNS(=O)(=O)c2cccc([N+](=O)[O-])c2)nc2cccnc21
- DT40 TDP1 no CPT = 16µM*
- uPA generation = /
- TDP1 cell CPT = 21µM*
- TDP1 inh = 11%
- miR-21 reporter = 1%

COc1cccc(C(=O)Oc2c(Br)cc(Br)cc2/C=N/NC(=O)c2cc(C)[nH]n2)c1
- DT40 TDP1 no CPT = 9.2µM*
- uPA generation = 4µM*
- TDP1 cell CPT = 6.5µM*
- TDP1 inh = -4%
- miR-21 reporter = 20%

O=C(/C=C/c1ccccc1)NCCSCc1ccccc1Cl
- DT40 TDP1 no CPT = ?
- uPA generation = -7%
- TDP1 cell CPT = ?
- TDP1 inh = 3%
- miR-21 reporter = -15%

Cc1ccc([N+](=O)[O-])cc1S(=O)(=O)N1CCn2cccc2C1c1ccccc1 (stereo unspecified)
- DT40 TDP1 no CPT = ?
- uPA generation = /
- TDP1 cell CPT = 21µM*
- TDP1 inh = 13%
- miR-21 reporter = -2%

Screens (PubChem)
